# Measured values reported in PubChem BioAssay AID652106 (National Center for Advancing Translational Sciences (NCATS), 2013).
# Only a part is listed here, and it is no random draw. The source made the active and inactive calls. Calls follow the shape of the dose curve; as a rule, active = well fitted activation curve with a large enough effect; inconclusive = small, poorly fitted or top-dose-only effect; inactive = no such curve, though single readings can be large or run the other way.
# Test: qHTS of alpha-syn Inhibitors; also: % of control where 0% means no effect; nearly all actives have a fitted effect of over 65% in size
# Settings: Yeast expressing alpha-synuclein, BacTiter-Glo, 24 h; at 46.1 µM (top of the series)
# Description: The goal of this project is to identify new chemical probes capable of reversing the toxicity associated with the Parkinson disease-related protein, alpha-synuclein. Compounds will be selected on their ability to restore growth in yeast cells expressing toxic levels of alpha-synuclein. These compounds will provide a complementary approach to deciphering the tangled mechanisms of toxicity and protection that we have uncovered through genome-wide genetic screens and are beginning to uncover in a large-scale proteomics analysis with mass spectroscopy. To this end, a miniaturized assay was developed to be screened against the Molecular Libraries Small Molecule Repository (MLSMR) to discover alpha-synuclein inhibitors. Please note that in the set-up this yeast-based assay compounds that inhibit as alpha-syn, have a read-out as activators. NIH Chemical Genomics Center [NCGC] NIH Molecular Libraries Probe Centers Network [MLPCN] MLPCN Grant: NS060957 Assay Submitter (PI): Susan Lindquist, Whitehead Institute/MIT
# Dispense 2.5 microL yeast galactose medium per 1536-well plate, pin compound, dispense 2.5 microL alpha-synuclein expressing yeast in galactose medium at OD600=0.02 (pregrown in raffinose medium to mid-log phase) per well, incubate for 24 hr at 30 deg C, and cell growth will be measured using 5 microL of Bactiter/Glo reagent to entire plate and read using Luminescence Protocol in ViewLux.
row,SMILES,growth rescue (activation)
1,CCOP(=O)(Nc1ccccc1)OCC,inactive: 0.494%
2,Cc1cc(SC(NC(=O)c2ccc(F)cc2)C(Cl)(Cl)Cl)ncn1 (centres undefined),inactive: -0.426%
3,CCN(N=Nc1nonc1N)c1nonc1N,inactive: 10.5%
4,Nc1cccc2ccc([As](=O)(O)O)cc12,inactive: -2.53%
5,O=[N+]([O-])c1cc2c(cc1[N+](=O)[O-])OCO2,inactive: 0.358%
6,NC(=O)c1cc([N+](=O)[O-])cc([N+](=O)[O-])c1N,inactive: 2.39%
7,Cc1ccc(N/C(=N/P(=O)(N2CCOCC2)N2CCOCC2)N2CCOCC2)cc1,inactive: -2.47%
8,CN(C(=O)Cc1ccc(Cl)c(Cl)c1)[C@H]1CCCC[C@H]1N1CCCC1,inactive: -12.3%
9,Cc1ccc(OP(=O)(Nc2nccs2)Oc2ccc(C)cc2)cc1,inactive: 0.72%
10,COc1ccccc1OP(=O)(Nc1ccc(C)cn1)Oc1ccccc1OC,inactive: -5.45%
11,Clc1ccc(Cl)c(NC2=NCC(CBr)S2)c1 (centres undefined),inactive: -0.574%
12,CN1CCCC(OC(=O)C(c2ccccc2)c2ccccc2)C1 (centres undefined),inactive: -21.8%
13,CC(C)CC(=O)NC(Sc1ccc(Cl)cc1)C(Cl)(Cl)Cl (centres undefined),inactive: -25.7%
14,Nc1cc(N)c2nonc2c1[N+](=O)[O-],inactive: 1.4%
15,O=C(NC(Sc1ccncn1)C(Cl)(Cl)Cl)c1ccccc1 (centres undefined),inactive: -16%
16,Oc1ccccc1CNc1ccccn1,inactive: -8.21%
17,O=[N+]([O-])C1C(O)C(O)C([N+](=O)[O-])C(O)C1O (centres undefined),inactive: 11.5%
18,COc1ccc(C2=NCC(CBr)S2)cc1 (centres undefined),inactive: -1.99%
19,CC(=O)N1C2C3N(C(C)=O)C1C1N(C(C)=O)C(C(N1C(C)=O)N3C(C)=O)N2C(C)=O,inactive: 5.54%
20,O=[N+]([O-])c1cccc2n[nH]nc12,inactive: -5.7%
21,O=[N+]([O-])c1cc([N+](=O)[O-])c(CCNc2ccccc2)c([N+](=O)[O-])c1,inactive: 3.77%
22,CCc1nc2c(n1)c1c(non1O)c1c2no[n+]1[O-],inactive: -14.4%
23,Cc1ccc(NP(=O)(Oc2ccccc2)Oc2ccccc2)nc1,inactive: -10.4%
24,Nc1ccc([As](=O)(O)c2ccc(N)cc2)cc1,inactive: -6.45%
25,CCN(/C(=N/P(=O)(N1CCOCC1)N1CCOCC1)N1CCOCC1)c1ccc(OC)cc1,inactive: -1.73%
26,CN(C)C(=O)OCCc1n(C)cc[n+]1C,inactive: 3.62%
27,CC(C)=N/N=C(\N)N[N+](=O)[O-],inactive: -0.0528%

row,SMILES,growth rescue (activation)
1,CC(C)c1nc(Nc2ccccc2)n(P(=O)(N(C)C)N(C)C)n1,inactive: -0.437%
2,c1cc(-c2nn[nH]n2)ccc1-c1nn[nH]n1,inactive: -0.809%
3,CC1CCN(C(=O)Oc2c(Cl)cc(Cl)c3cccnc23)CC1,inactive: 7.42%
4,O=P1(N(CCCl)CCCl)OCCCS1 (centres undefined),inactive: 1.56%
5,O=C(Nc1cc([As](=O)(O)O)ccc1O)c1ccccc1,inactive: -9.54%
6,O=P(/N=c1/nc(-c2ccccc2)n(-c2ccccc2)s1)(Nc1ccccc1)Nc1ccccc1,inactive: 10.6%
7,CC(C)(C)C(=O)NC(Sc1ccncn1)C(Cl)(Cl)Cl (centres undefined),inactive: -0.124%
8,O=[N+]([O-])c1ncn(CCn2ncnc2[N+](=O)[O-])n1,inactive: 3.32%
9,O=[N+]([O-])c1cccc(NC2=NCC(CBr)S2)c1 (centres undefined),inactive: 1.44%
10,COC(=O)C1(C)COP(=O)(Nc2ccccc2)OC1 (centres undefined),inactive: 1.45%
11,O=C(O)CNc1ccc([As](=O)(O)O)cc1,inactive: 1.34%
12,COc1ccc(N)c([N+](=O)[O-])c1[N+](=O)[O-],inactive: 3.13%
13,CN(C)C1(CNC(=O)c2ccc(Cl)c(S(N)(=O)=O)c2)CCCCC1,inactive: 3.21%
14,O=P(Nc1ccccn1)(c1ccc(Br)cc1)c1ccc(Br)cc1,inactive: 7.16%
15,C[C@H]1OP(=O)(Oc2ccccc2)[C@H](O)[C@H](O)[C@H]1N=[N+]=[N-] (some centres undefined),inactive: -4.84%
16,O=P(Nc1nc2ccccc2s1)(c1ccccc1)c1ccccc1,inactive: 1.76%
17,O=[N+]([O-])c1ncn(CCn2cnc([N+](=O)[O-])n2)n1,inactive: -9.54%
18,CC(=O)NC(SC(=S)N(C)C)C(Cl)(Cl)Cl (centres undefined),inactive: -7.17%
19,O=[N+]([O-])c1ccc(O)c(/C=N/Nc2ccc([N+](=O)[O-])cc2[N+](=O)[O-])c1,inactive: -16.4%
20,O=[As](O)(c1ccccc1)c1ccc(O)cc1,inactive: 0.769%
21,Nc1ccc([As](=O)(O)c2ccc([N+](=O)[O-])cc2)cc1,inactive: -3.45%
22,C(Cc1nn[nH]n1)Cc1nn[nH]n1,inactive: -6.62%
23,O=C(OC1CN2CCC1CC2)c1cccc(Cl)c1 (centres undefined),inactive: 1.37%
24,O=P(Nc1nccs1)(c1ccccc1)c1ccccc1,inactive: 2.27%
25,CC(C)C(=O)NC(Sc1ccccc1)C(Cl)(Cl)Cl (centres undefined),inactive: 5.37%
26,c1nnnn1CCn1cnnn1,inactive: 0.511%
27,CCOc1ccc(C2=NCC(CBr)S2)cc1 (centres undefined),inactive: 5.09%

row,SMILES,growth rescue (activation)
1,O=P1(Nc2nc3ccc(Cl)cc3s2)COc2ccccc2O1 (centres undefined),inactive: -14.7%
2,CCc1cc(O)c([N+](=O)[O-])c(C)c1[N+](=O)[O-],inactive: -72.9%
3,CC(C)(C)C(=O)NC(Sc1ccccc1)C(Cl)(Cl)Cl (centres undefined),inactive: 4.38%
4,COC(=O)C1(C)COP(=O)(NCc2ccccc2)OC1 (centres undefined),inactive: -2.5%
5,N#C/C(=C\c1ccc(N(CCBr)CCBr)cc1)C(N)=O,inactive: 7.5%
6,CC(=O)c1ccc(N2CC2c2ccncc2)cc1 (centres undefined),inactive: -0.872%
7,C[C@@H]1C=CCP(=O)(Oc2ccccc2)O1 (some centres undefined),inactive: -0.29%
8,C[C@H]1OP(=O)(Oc2ccccc2)C[C@@H]2O[C@@H]21 (some centres undefined),inactive: 3.59%
9,Cc1ccccc1CN(C)C(=O)COC(=O)C(O)(c1ccccc1)c1ccccc1,inactive: 12.5%
10,CC(=O)Nc1ccc(Oc2c([N+](=O)[O-])cc([N+](=O)[O-])cc2[N+](=O)[O-])cc1,inactive: 5.68%
11,CC(=O)Nc1ccc([As](=O)(O)O)c(O)c1,inactive: -1.24%
12,O=C(NC1CCS(=O)(=O)C1)NP(=S)(Oc1ccccc1)Oc1ccccc1 (centres undefined),inactive: -4.31%
13,CCNC(=S)/N=C(\N)N[N+](=O)[O-],inactive: 0.663%
14,Cc1ccc(NP(=O)(Oc2cccc(C)c2)Oc2cccc(C)c2)nc1,inactive: -0.881%
15,c1ccc(-c2nn[nH]n2)c(-c2nn[nH]n2)c1,inactive: 1.61%
16,O=P1(N(CCCl)CCCl)OCCC2CCCCN21 (centres undefined),inactive: -3.81%
17,CC(=O)NC(SC(=S)N(CC(C)C)CC(C)C)C(Cl)(Cl)Cl (centres undefined),inactive: 4.89%
18,COC(=O)c1cc2c(s1)N=C(c1ccccc1)N(C)P2(=O)N1CCOCC1 (centres undefined),inactive: -9.21%
19,CCC(=O)N1C2C3N(C(=O)CC)C1C1N(C(=O)CC)C(C(N1C(=O)CC)N3C(=O)CC)N2C(=O)CC,inactive: -6.2%
20,O=C(OC1CN2CCC1CC2)c1ccccc1 (centres undefined),inactive: -2.18%
21,CN(C(=O)Cc1ccc(Cl)c(Cl)c1)[C@@H]1CCCC[C@@H]1N1CCCC1,inactive: 1.57%
22,CN(C)C(=O)Oc1noc2ccccc12,inactive: 5.63%
23,O=c1c2cc([N+](=O)[O-])ccc2[nH]c2c([N+](=O)[O-])cc([N+](=O)[O-])cc12,inactive: -69.1%
24,Cc1ccccc1OP(=O)(Nc1ccccn1)Oc1ccccc1C,inactive: 19.4%
25,CC(NC(=O)COC(=O)C(O)(c1ccccc1)c1ccccc1)c1ccccc1 (centres undefined),inactive: 11.1%
